# Compound activity from PubChem BioAssay.
# An excerpt weighted towards active compounds, which were near 2.8% of everything screened.
# Yeast UUG start: alters start codon recognition fidelity in yeast. S. cerevisiae UUG-firefly luciferase reporter, luminescence/redox ratio. 350,000 tested, 0.13% active. activity score, % at 18.7 µM. AID 602363;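 active means replicate mean at a twofold rise or more, about +100% in these data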;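 further: firefly luciferase made from a UUG start codon reports start codon fidelity; reporter light over untreated wells divided by growth signal over untreated wells; some hits fall short of that in this replicate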
# Wnt act: Wnt/beta-catenin pathway activation | activation, % at 9.35 µM | AID 743398 | Wnt/beta-catenin reporter cell assay, activator, plate reader | actives 1.2% (n = 300,000); in the data active = activation above about 30%, passing the limit was not always enough; inconclusive = no clear call, values can overlap the other calls;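 note: 0% = neutral control wells and 100% = positive control wells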
# miR122 inh: miR-122 inhibition in Huh7 cells | Huh7 miR-122 Renilla luciferase sensor, 48 h; neutral wells = 0, positive control = 100 | activation (reporter increase), % at 12.5 µM | actives 0.3% (n = 340,000);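 active = mean replicate activation score at least 90 and every replicate individually at or above 90; inconclusive = only one of the two criteria met; inactive = neither criterion met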;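 note: higher luciferase means less miR-122 activity so hits act as miR-122 inhibitors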
# esBAF inh: inhibitors of esBAF chromatin remodeling in mouse ES cells | actives 2% (n = 350,000) | Bmi1-luciferase knock-in reporter, 24 h; 100% = twice the neutral-well signal | reporter increase, % at 12.5 µM; in the data active = activation above about 40%; inconclusive = no clear call, values can overlap the other calls;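 note: 0% = median of the plate's neutral control wells and 100% = double that signal; a rise in the Bmi1 reporter signal indicates esBAF inhibition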
# MITF TRPM1 HTS: activators of MITF-driven TRPM1 promoter activity in SK-MEL-5 cells. activation, % at 12.5 µM. SK-MEL-5 TRPM1-promoter luciferase, 24 h; % of positive control, neutral wells = 0. AID 588334. actives 0.75% (n = 300,000);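 active = mean activation of at least 80% with every replicate also reaching 80%; inconclusive = mean reaches 80% but some replicate falls short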;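 note: 0% = neutral control wells and 100% = parthenolide positive control wells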
# PglD DTNB: inhibitors of Campylobacter jejuni PglD acetyltransferase. purified PglD enzyme, DTNB colorimetric CoA detection. inhibition, % at 12.5 µM. actives 0.098% (n = 360,000). AID 602405; in the data active = inhibition above about 16%, passing the limit was not always enough; inconclusive = no clear call, values can overlap the other calls
# * = called active by the depositor; ? = inconclusive; nt = no result; [ ] = dose if it differs, or a comment.
SMILES,Yeast UUG start,Wnt act,miR122 inh,esBAF inh,MITF TRPM1 HTS,PglD DTNB
CC(C)(C)OC(=O)N1CCC(NC(=O)c2ncn(Cc3ccccc3)c2C(=O)NC2CCN(C(=O)OC(C)(C)C)CC2)CC1,-14,-6,-3,35,432*,-1
Cn1cnc(C(=O)NC2CCN(C(=O)OC(C)(C)C)CC2)c1C(=O)NC1CCN(C(=O)OC(C)(C)C)CC1,-7,1,1,nt,12,6
CNC(=O)C[C@@H]1CC[C@H]2[C@@H](COC[C@@H](O)CN2Cc2ccc(C(F)(F)F)cc2)O1,nt,nt,3[16.7 µM],8,nt,1
CCOc1ccc(C2=Nc3ccccc3C(c3ccc(N4CCOCC4)cc3)=NN2)cc1,-3,nt,-19,50*,nt,-3
COCc1cc(=O)[nH]c2cc(NC(=O)C3CC3)c(C)cc12,1,50*,-3,nt,-17,-2
COCCn1c(NC(=S)NC(=O)C2CC2)cc(=O)[nH]c1=O,-18,-2,1,-7,11,8
Clc1nc2ccccc2cc1-c1nnn(-c2ccccc2Br)n1,-16,30,nt,41*,47,1
Clc1ncccc1-c1nnn(-c2ccccc2Br)n1,-12,17,3,50*,66,0
Brc1ccccc1-n1nnc(-c2cnc3ccccc3c2)n1,-50,43*,nt,?,44,1
Cc1ccc(-c2noc(/C=C/c3ccccc3)n2)cc1,-16,nt,-8,46*,68,1
C(=C\c1nc(-c2cccnc2)no1)/c1ccccc1,-17,48*,-7,20,75,3
Clc1ccccc1/C=C/c1nc(-c2cccnc2)no1,-5,39*,-21,21,84*,2
Clc1ccccc1-c1nc(-c2cccnc2)no1,-10,nt,-1,24,3,2
Clc1ccc(-c2noc(/C=C/c3ccccc3)n2)cc1,nt,14,nt,31,nt,nt
Cc1noc(C)c1NC(=O)N(C)C[C@@H]1Oc2ccc(NC(=O)Nc3ccccc3)cc2C(=O)N([C@H](C)CO)C[C@H]1C,-7,nt,3[16.7 µM],-3,nt,1
COc1ccccc1-c1noc(-c2cccs2)n1,-18,23,9,55*,121*,0
COc1ccccc1-c1noc(-c2ccncc2)n1,-29,0,2,46*,35,-3
COc1ccccc1-c1nc(-c2ccc(C)nc2OC)no1,-1,61*,-11,69*,nt,2
COc1nc(C)ccc1-c1noc(-c2ccccn2)n1,-18,17,19,-26,66,3
O=C(NCC1CC1)[C@H]1[C@H](CO)[C@H]2Cn3c(cccc3=O)[C@@H]1N2CCc1ccccc1,-6,nt,-3[16.7 µM],4,nt,1

# Two of the compounds above, with bars between the fields.
SMILES | Yeast UUG start | Wnt act | miR122 inh | esBAF inh | MITF TRPM1 HTS | PglD DTNB
CNC(=O)C[C@@H]1CC[C@H]2[C@@H](COC[C@@H](O)CN2Cc2ccc(C(F)(F)F)cc2)O1 | nt | nt | 3[16.7 µM] | 8 | nt | 1
COCc1cc(=O)[nH]c2cc(NC(=O)C3CC3)c(C)cc12 | 1 | 50* | -3 | nt | -17 | -2

# (cont.)
SMILES,Yeast UUG start,Wnt act,miR122 inh,esBAF inh,MITF TRPM1 HTS,PglD DTNB
O=S(=O)(NCC1CCCO1)c1ccc(Cl)c(C(F)(F)F)c1 (stereo not drawn),-4,nt,155*,0,7,-1
COc1ccc(-c2cnc3c(c2)C(=O)N([C@@H](C)CO)C[C@@H](C)[C@H](CN(C)Cc2ccccc2)O3)cc1,12,nt,-10[16.7 µM],-8,nt,1
COc1ccccc1C(CNc1ncccc1[N+](=O)[O-])N(C)C (stereo not drawn),-9,0,nt,3,-9,0
COc1ccc(CNc2ncccc2[N+](=O)[O-])cc1,-8,8,11,54*,41,-1
C(=C\c1ccccc1)/C=N/Nc1nc2ccccc2s1,-8,?,9,66*,101*,-7
CCC/C=N/Nc1nc2ccccc2s1,nt,75*,nt,nt,80,nt
Brc1ccc(/C=C/C=N/Nc2nc3ccccc3s2)cc1,1,nt,-2,25,44,-5
CO[C@@H]1CN(C)C(=O)c2ccc(NC(=O)c3nc4ccccc4s3)cc2OC[C@@H](C)NC[C@@H]1C,nt,nt,nt,3,nt,1
O=C1CC(c2ccco2)CC2=C1C=Nc1ccccc1N2 (stereo not drawn),-9,45*,-1,0,-4,-4
COc1ccc(S(=O)(=O)N(C)C[C@H]2OCCCC[C@H](C)Oc3ccc(NS(C)(=O)=O)cc3C(=O)N([C@H](C)CO)C[C@H]2C)cc1,6,nt,-2[16.7 µM],1,nt,1
O=C(CCN1CCCCC1)N[C@H]1CC[C@H](CCNC(=O)c2cc(Cl)cc(Cl)c2)O[C@@H]1CO,4,nt,nt,7,nt,4
COc1ccc(C(=O)COC(=O)c2sccc2C)cc1OC,-5,45*,0,91*,103*,-2
Cc1ccsc1C(=O)OCC(=O)c1ccc[nH]1,6,38*,-4,48*,109*,-2
Cc1ccc(C(=O)OCC(=O)c2ccc[nH]2)s1,nt,0,nt,nt,31,nt
CC(C)Oc1ccc(C(=O)OCC(=O)c2ccc[nH]2)cc1,-14,45*,nt,65*,89*,7
COc1ccc(C(=O)COC(=O)c2ccc(OC)c(OC)c2)cc1OC,-15,nt,3,nt,-3,-2
Cc1ccsc1C(=O)OCC(=O)Nc1sccc1C(N)=O,nt,nt,-6,88*,nt,nt
C[C@@H]1CN([C@@H](C)CO)C(=O)c2cc(C#Cc3cccnc3)cnc2O[C@@H]1CN(C)C(=O)CC1CC1,-6,nt,4[16.7 µM],-16,nt,1
Cc1[nH]c(=S)[nH]c(=O)c1Cc1c(O)ccc2ccccc12,nt,0,134*,-8,0,nt
Cc1ccc(Nc2ncnc3ccccc23)cc1,-18,nt,-4,46*,?,-1

# Ordered by molar mass (descending): part of the list above.
SMILES,Yeast UUG start,Wnt act,miR122 inh,esBAF inh,MITF TRPM1 HTS,PglD DTNB
Brc1ccc(/C=C/C=N/Nc2nc3ccccc3s2)cc1,1,nt,-2,25,44,-5
CC(C)Oc1ccc(C(=O)OCC(=O)c2ccc[nH]2)cc1,-14,45*,nt,65*,89*,7
C(=C\c1ccccc1)/C=N/Nc1nc2ccccc2s1,-8,?,9,66*,101*,-7

# Next part:
SMILES,Yeast UUG start,Wnt act,miR122 inh,esBAF inh,MITF TRPM1 HTS,PglD DTNB
COC(=O)C(=O)C/C(=N/Nc1ncnc2ccccc12)c1ccc(Cl)cc1,-30,-1,3,11,-30,4
Cc1ccc(/C(=N/Nc2ncnc3ccccc23)C(=O)O)cc1,-34,44*,1,52*,-4,0
Cc1cccc(Nc2ncnc3ccccc23)c1,-5,47*,-2,nt,1,0
CC(=O)Oc1cccc(Nc2ncnc3ccccc23)c1,-24,2,-3,7,nt,-5
C[C@H]1CN([C@@H](C)CO)C(=O)c2cc(NC(=O)Cn3cnnn3)ccc2O[C@@H]1CN(C)S(=O)(=O)c1ccc(Cl)cc1,nt,nt,3[16.7 µM],-1,nt,nt
CCc1cc2c(=O)n(C(C)C(=O)OC3CCCCC3)cnc2s1 (stereo not drawn),-8,2,10,?,100*,10
O=C(C[C@H]1CC[C@@H](NC(=O)C2CC2)[C@H](CO)O1)NCc1ccncc1,0,nt,nt,0,nt,0
CCC(=O)N1[C@H](C(=O)N2CCCCC2)[C@@H](CO)[C@@H]2Cn3c(cccc3=O)[C@@H]21,nt,nt,nt,7,nt,4
CCCSCCCNC(=O)c1ccc(NC(=O)C2=CSCCO2)cc1,-20,0,4,55*,8,-2
CCN1CCN(CCCNC(=O)c2ccc(NC(=O)C3=CSCCO3)cc2)CC1,-21,1,nt,8,7,-3
Cc1ccc(C(=O)c2sc3nc4c(cc3c2N)CCC4)cc1,-10,33*,-4,nt,125*,6
Nc1c(C(=O)N2CCCC2)sc2nc(-c3ccccc3)ccc12,nt,49*,nt,69*,103*,nt

# miR122 inh: entries above that show a hit
SMILES,Yeast UUG start,Wnt act,miR122 inh,esBAF inh,MITF TRPM1 HTS,PglD DTNB
O=S(=O)(NCC1CCCO1)c1ccc(Cl)c(C(F)(F)F)c1 (stereo not drawn),-4,nt,155*,0,7,-1
Cc1[nH]c(=S)[nH]c(=O)c1Cc1c(O)ccc2ccccc12,nt,0,134*,-8,0,nt
